Usually EC50 stands for the concentration at which the effect is half-maximal. Read a high EC50 as lower potency in that assay.

Protein sequences, listed by entry. Tags and fused reporters are not part of them.
UniProt P34972, whole entry: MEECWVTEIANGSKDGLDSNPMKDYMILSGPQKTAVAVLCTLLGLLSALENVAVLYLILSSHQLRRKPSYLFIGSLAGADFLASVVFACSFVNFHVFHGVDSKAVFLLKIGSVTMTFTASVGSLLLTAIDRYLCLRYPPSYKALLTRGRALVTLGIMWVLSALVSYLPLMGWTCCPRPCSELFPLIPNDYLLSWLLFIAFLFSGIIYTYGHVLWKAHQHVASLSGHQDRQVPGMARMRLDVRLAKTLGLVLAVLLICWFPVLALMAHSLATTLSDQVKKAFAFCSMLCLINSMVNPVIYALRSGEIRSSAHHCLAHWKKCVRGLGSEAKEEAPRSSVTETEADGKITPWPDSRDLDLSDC

Structures are written as SMILES.

For this experiment, the target named is hCB2R (Homo sapiens, UniProt P34972). Nature of the experiment: cell-based. The arrangement: expressed in transfected cells; host or cells: HEK293TR cells, tetracycline-induced, live cells.

On to `CCCCCCC(C)(C)c1cc(OC)c([C@@H]2C=C(CO)[C@@H]3C[C@H]2C3(C)C)c(OC)c1` [HU-308, reference compound], for which it took 4.27 nM to reach a half-maximal effect (EC50). This lies in the single-digit nanomolar range.
